One experiment concerns the target WT EZH2 (Homo sapiens (Human), UniProt Q15910). Nature of the experiment: WT EZH2 nucleosome assay (10X SAM, high SAM conditions). It counts as biochemical. As to conditions: read-out: WT EZH2 Nucleosome assay (10X SAM) Ki, 15 uM SAM, Ki app from competitive inhibition fit.
The next experiment has as its target EZH2 Mutant Y641N (Homo sapiens (Human), UniProt Q15910, Y641N). In words: EZH2 Mutant Y641N nucleosome assay. The following applies: read-out: EZH2 Mutant Y641N Nucleosome assay IC50; PRC2 4-protein complex 6 nM, 1.5 μM SAM, HeLa oligonucleosomes. Format: biochemical.

By UniProt entry, the sequences of proteins in these tests, tags left out. Where a name states a change or a piece, a line headed by the entry shows the natural chain unless it says otherwise.
UniProt Q15910, whole entry: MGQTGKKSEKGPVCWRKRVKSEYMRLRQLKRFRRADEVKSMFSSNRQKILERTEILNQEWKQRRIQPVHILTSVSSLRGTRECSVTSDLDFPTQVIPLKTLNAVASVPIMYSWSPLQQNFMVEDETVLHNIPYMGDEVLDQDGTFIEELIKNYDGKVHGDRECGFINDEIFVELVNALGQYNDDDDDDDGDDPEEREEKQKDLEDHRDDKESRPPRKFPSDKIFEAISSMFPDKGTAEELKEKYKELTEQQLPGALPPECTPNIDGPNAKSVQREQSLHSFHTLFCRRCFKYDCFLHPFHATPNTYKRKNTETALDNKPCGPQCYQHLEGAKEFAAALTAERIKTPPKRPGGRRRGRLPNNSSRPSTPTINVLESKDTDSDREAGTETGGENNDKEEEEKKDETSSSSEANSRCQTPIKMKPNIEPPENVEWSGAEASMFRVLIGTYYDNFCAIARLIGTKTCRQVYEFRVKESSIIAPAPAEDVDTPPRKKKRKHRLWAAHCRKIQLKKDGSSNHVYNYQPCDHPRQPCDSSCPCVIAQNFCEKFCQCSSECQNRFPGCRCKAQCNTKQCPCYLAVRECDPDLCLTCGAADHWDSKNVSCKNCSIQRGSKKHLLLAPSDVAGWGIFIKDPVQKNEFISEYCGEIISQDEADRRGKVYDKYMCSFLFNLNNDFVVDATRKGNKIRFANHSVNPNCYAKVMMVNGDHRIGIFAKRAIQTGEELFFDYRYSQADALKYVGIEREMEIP
UniProt Q15910, whole entry Y641N: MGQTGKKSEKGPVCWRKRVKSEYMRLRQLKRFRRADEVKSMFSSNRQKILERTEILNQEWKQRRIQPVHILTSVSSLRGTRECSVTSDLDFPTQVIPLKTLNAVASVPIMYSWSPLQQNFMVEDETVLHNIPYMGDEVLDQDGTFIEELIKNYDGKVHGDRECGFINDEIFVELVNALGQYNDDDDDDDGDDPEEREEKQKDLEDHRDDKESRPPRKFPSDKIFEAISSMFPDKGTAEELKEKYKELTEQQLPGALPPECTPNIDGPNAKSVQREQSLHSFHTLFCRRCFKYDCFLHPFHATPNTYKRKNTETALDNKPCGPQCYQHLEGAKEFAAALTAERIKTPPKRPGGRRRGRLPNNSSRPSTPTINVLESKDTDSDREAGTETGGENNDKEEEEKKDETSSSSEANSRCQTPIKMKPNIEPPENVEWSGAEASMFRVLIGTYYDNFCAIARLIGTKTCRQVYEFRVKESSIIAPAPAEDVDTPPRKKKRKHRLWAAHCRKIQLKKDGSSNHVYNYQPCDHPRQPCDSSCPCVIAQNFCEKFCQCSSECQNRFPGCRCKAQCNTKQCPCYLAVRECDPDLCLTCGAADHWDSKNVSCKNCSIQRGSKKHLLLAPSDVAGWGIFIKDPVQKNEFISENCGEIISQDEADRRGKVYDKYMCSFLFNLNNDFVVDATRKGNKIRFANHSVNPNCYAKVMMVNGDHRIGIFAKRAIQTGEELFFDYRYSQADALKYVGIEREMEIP

This note sets out measurements from US10570121B2, “Substituted dihydroisoquinolinone compounds” (priority 2014, dated 2020).

One may read the IC50 as the concentration needed to halve the response being measured. For `Cc1cc(OC(F)F)c(CN2CCc3c(Cl)cc(C(CO)C4CCOCC4)c(Cl)c3C2=O)c(=O)[nH]1` (single isomer, unassigned), the Ki at WT EZH2 worked out at 162 nM. For the same compound, the IC50 at EZH2 Mutant Y641N stood at 843 nM.
